Experimental findings from US8975232B2, “Macrocyclic kinase inhibitors and uses thereof” (President and Fellows of Harvard College, priority 2010, dated 2015) are described below.

Protein sequences, listed by entry. Tags and fused reporters are not part of them.
UniProt P12931, whole entry: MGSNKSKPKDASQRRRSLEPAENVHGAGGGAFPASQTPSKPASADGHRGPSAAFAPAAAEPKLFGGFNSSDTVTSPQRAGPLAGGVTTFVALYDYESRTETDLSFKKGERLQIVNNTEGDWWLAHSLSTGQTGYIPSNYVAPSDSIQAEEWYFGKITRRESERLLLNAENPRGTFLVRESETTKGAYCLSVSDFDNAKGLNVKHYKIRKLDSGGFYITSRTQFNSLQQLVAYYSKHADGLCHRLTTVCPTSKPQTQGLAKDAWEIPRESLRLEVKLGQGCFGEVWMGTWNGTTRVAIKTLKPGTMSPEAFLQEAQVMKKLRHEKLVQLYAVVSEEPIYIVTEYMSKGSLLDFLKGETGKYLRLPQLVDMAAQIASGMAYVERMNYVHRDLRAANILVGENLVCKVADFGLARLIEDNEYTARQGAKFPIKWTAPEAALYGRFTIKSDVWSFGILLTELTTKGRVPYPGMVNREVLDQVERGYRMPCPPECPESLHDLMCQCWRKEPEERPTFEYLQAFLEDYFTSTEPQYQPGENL

The assay concerns the target Src kinase (Homo sapiens, UniProt P12931). Nature of the assay: Z'-LYTE kinase assay (Invitrogen), Src. The format is biochemical. The following applies: read-out: Src IC50, ATP near KM.

On to `CS(=O)(=O)CCC1NC(=O)C(Cc2ccco2)NC(=O)C(CC2CC2)NC(=O)/C=C\C(=O)NC(C(N)=O)CCNC1=O` (stereo not shown), for which the 50% inhibitory concentration (IC50) was greater than 100 µM.
